Tested on: H1703 Sunitinib resistant line C (H1703 SRc)
Experiment: cells
Conditions: Homo sapiens, NCI-H1703, read-out: Sunitinib IC50(μM)
Experimental: GraphPad Prism 4.01 was used to calculate IC50 values. […] GenoSensor GenoExplorer™ microRNA Expression System (Sanger miRNA Registry version 14 containing probes for 904 mature miRNAs and 450 pre-miRNAs) was used to screen miR expression. Differences in miRs expression between the parent and resistant cells were identified using at test with Benjamini-Hochberg correction and validated by qPCR. A score was calculated for each miRNA to determine whether a miRNA can predict SR.

IC50: 2.09 µM
Compound: CCN(CC)CCNC(=O)c1c(C)[nH]c(/C=C2\C(=O)Nc3ccc(F)cc32)c1C [Sunitinib, N-[2-(diethylamino)ethyl]-5-[(Z)-(5-fluoro-1,2-dihydro-2-oxo-3H-indol-3-ylidine)methyl]-2,4-dimethyl-1H-pyrrole-3-carboxamide]

— US20120095030A1, “METHODS AND KITS TO PREDICT THERAPEUTIC OUTCOME OF TYROSINE KINASE INHIBITORS” (THE TRANSLATIONAL GENOMICS RESEARCH INSTITUTE, priority 2009, published 2012)
